Source: patent publication US20050208528A1, “Enhancement of the stability of oligonucleotides comprising phosphorothioate linkages by addition of water-soluble antioxidants” (ISIS Pharmaceuticals, Inc., priority 2001, published 2005)

Tested on: phosphorothioate oligonucleotide (ISIS-2302)
Assay: Desulfurization of phosphorothioate oligonucleotide in mono-phasic system with oil-soluble antioxidants (SAX chromatography)
Type: physicochemical
Conditions: 5 mg additive; 0.5 g PEG-40-monostearate, 1.5 ml phosphate buffer pH 7.0, 1.5 mg ISIS-2302; 65° C. 20 hours; no antioxidants 51.0
Method: Polyethyleneglycol-40-monostearate (0.5 g), a water-soluble excipient which forms peroxides in the absence of antioxidants, was heated at 65° C. for 20 hours with 1.5 ml phosphate buffer, pH 7.0 and 1.5 mg phosphorothioate oligonucleotide (ISIS-2302) in the absence or presence of various oil-soluble antioxidants. Oligonucleotides were isolated by ethanol precipitation and phosphorothioate content was determined by strong anion exchange (SAX) chromatography.

Structure (SMILES): Cc1ccc(C(C)(C)C)c(O)c1 [2-t-butyl-5-methylphenol]
- Full PS content (area-% SAX): 89.4 area-% SAX
